Reference: publication PMC6015732

Sequences of proteins named here, by UniProt entry; tags and fusion partners are left off. Residues count along the entry.
UniProt P02745, 23-245: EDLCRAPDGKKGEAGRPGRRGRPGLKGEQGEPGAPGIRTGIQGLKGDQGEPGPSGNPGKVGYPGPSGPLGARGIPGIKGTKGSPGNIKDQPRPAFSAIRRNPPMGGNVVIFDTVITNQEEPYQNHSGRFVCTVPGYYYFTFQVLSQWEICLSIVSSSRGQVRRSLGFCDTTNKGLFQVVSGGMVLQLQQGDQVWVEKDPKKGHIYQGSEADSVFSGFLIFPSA
human complement component C1q, UniProt P02746, 28-253: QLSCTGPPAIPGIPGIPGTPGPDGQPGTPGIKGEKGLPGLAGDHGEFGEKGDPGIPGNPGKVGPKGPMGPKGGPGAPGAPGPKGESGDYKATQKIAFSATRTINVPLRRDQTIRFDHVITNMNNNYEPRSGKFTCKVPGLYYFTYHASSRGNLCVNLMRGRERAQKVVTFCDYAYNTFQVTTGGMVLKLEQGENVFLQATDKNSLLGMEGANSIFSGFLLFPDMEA
human complement component C1q, UniProt P02747, 29-245: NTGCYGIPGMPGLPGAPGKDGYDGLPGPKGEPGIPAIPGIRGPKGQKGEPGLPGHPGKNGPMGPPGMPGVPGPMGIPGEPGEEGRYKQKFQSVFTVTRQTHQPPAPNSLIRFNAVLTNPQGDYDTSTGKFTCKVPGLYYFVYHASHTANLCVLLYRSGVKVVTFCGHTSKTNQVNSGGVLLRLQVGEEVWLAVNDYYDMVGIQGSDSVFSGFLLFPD

Tests used:
Assay in all cases: SPR
[1] = target: RA801 (Fc domain of aglycosylated clone 801 constructed with the Fab arms of Rituxan) (human)
[2] = target: RA802 (Rituxan clone 802, aglycosylated) (human)
[3] = target: RG801 (Fc domain of glycosylated clone 801 constructed with the Fab arms of Rituxan) (human)

Substance: human complement component C1q (from UniProt P02745 23-245; P02746 28-253; P02747 29-245) (complex)
- Kd [1]: 0.108 nM
- Kd [2]: 0.145 nM
- Kd [3]: 0.385 nM
